From patent US8652473B2, “Antibodies to EGF receptor epitope peptides and uses thereof” (Ludwig Institute for Cancer Research Ltd., priority 2004, dated 2014) come the findings set out here.

The experiment relates to internalization of the EGFR. The experiment is described as follows: EGFR internalization during ligand binding assay. As to conditions: 30 μM Phenylarsine oxide; data not shown.

A value given as a limit tells only on which side of the number the result lay.

With `O=[As]c1ccccc1` (stereo not shown), the “internalization of the EGFR” value was above 1%.
